From paper PMC3731160 (ACS medicinal chemistry letters, 2013)

Protein sequences, listed by entry. Tags and fused reporters are not part of them. Lines headed by an entry give the natural chain unless they say otherwise; changes in a name come on top.
UniProt P43116: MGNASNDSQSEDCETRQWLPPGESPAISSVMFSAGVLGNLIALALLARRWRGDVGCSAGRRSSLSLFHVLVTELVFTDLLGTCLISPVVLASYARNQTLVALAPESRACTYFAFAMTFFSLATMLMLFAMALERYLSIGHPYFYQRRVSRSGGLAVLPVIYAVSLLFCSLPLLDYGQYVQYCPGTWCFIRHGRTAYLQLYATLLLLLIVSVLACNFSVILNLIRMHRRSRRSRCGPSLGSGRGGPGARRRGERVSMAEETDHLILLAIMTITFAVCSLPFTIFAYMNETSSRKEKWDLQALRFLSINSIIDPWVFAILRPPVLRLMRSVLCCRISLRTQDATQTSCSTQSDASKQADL

Assays:
EP2 receptor = EP2 receptor (Homo sapiens, UniProt P43116); assay: PGE2-induced cAMP accumulation; format: cell-based; conditions: from EP2 Schild KB
DP1 receptor = biological target: T1, DP1 receptor (Homo sapiens, UniProt Q13258); conditions: ratio of KB values
T1 sequence (Q13258 1-359): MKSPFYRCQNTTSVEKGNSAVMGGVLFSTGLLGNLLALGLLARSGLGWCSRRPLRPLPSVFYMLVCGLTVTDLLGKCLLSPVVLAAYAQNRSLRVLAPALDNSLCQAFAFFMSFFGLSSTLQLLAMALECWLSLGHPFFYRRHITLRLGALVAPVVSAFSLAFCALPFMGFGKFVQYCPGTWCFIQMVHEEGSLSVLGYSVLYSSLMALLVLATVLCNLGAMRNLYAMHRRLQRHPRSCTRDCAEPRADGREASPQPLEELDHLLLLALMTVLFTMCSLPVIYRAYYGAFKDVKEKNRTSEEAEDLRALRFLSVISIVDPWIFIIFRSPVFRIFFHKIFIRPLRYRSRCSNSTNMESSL

| Structure (SMILES) | fold less potency on EP2 in comparison to parent TG6-129 (EP2 receptor) | selectivity index for EP2 against DP1 (DP1 receptor) [fold] |
| --- | --- | --- |
| COc1cc(NS(=O)(=O)c2ccc(NC(=S)NC(=O)c3sc4cc(F)ccc4c3Cl)cc2)nc(OC)n1 [compound 8] | 12–15 fold | – |
| COc1ccc(NS(=O)(=O)c2ccc(NC(=S)NC(=O)/C=C/c3ccc(C)cc3)cc2)nn1 [compound 7] | ~1.5 fold | – |
| CCc1nnc(NS(=O)(=O)c2ccc(NC(=S)NC(=O)/C=C/c3ccc(F)cc3)cc2)s1 [TG6-129, (E)-N-((4-(N-(5-ethyl-1,3,4-thiadiazol-2-yl)sulfamoyl)phenyl)carbamothioyl)-3-(4-fluorophenyl)acrylamide] | – | 1660 |
| CCc1nnc(NS(=O)(=O)c2ccc(NC(=S)NC(=O)/C=C/c3ccc(OC)cc3)cc2)s1 [compound 3] | 4 fold | – |
